Measurements from PubChem BioAssay (NCI).
The entries are a selection whose mix differs from that of the whole data set.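 For each line, cells grew in 96-well plates with the test compound present at a single concentration for 48 hours.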 Activity calls are given as the source filed them. How the source made its calls: active means growth percent below 10; inactive means the rest.

Experiments:
Assay in all cases: NCI-60 one-dose screen, 48 h (100 = growth as untreated, 0 = no growth, -100 = all killed)
Details in all cases: 10 µM unless noted
SK-MEL-2 melanoma = system: SK-MEL-2 melanoma
SN12C renal = system: SN12C renal
UO-31 renal = system: UO-31 renal
TK-10 renal = system: TK-10 renal
ACHN renal = system: ACHN renal
CAKI-1 renal = system: CAKI-1 renal
A498 renal = system: A498 renal
HL-60(TB) leukemia = system: HL-60(TB) leukemia
CCRF-CEM leukemia = system: CCRF-CEM leukemia
MOLT-4 leukemia = system: MOLT-4 leukemia
SR leukemia = system: SR leukemia
RPMI-8226 leukemia = system: RPMI-8226 leukemia
OVCAR-8 ovarian = system: OVCAR-8 ovarian
OVCAR-5 ovarian = system: OVCAR-5 ovarian
OVCAR-4 ovarian = system: OVCAR-4 ovarian
SK-OV-3 ovarian = system: SK-OV-3 ovarian
IGROV1 ovarian = system: IGROV1 ovarian
OVCAR-3 ovarian = system: OVCAR-3 ovarian
HS 578T breast = system: HS 578T breast

Measured: growth

CCOC(=O)NC(C)(CCC(C)(NC(=O)OCC)P(=O)(O)Nc1ncccn1)P(=O)(O)Nc1ncccn1 (configuration not stated)
inactive: SK-MEL-2 melanoma 106% [100 µM] | SN12C renal 95.9% [100 µM] | UO-31 renal 92.9% [100 µM] | TK-10 renal 92.9% [100 µM] | ACHN renal 101% [100 µM] | CAKI-1 renal 93.9% [100 µM] | A498 renal 121% [100 µM] | HL-60(TB) leukemia 98.7% [100 µM] | CCRF-CEM leukemia 101% [100 µM] | MOLT-4 leukemia 108% [100 µM] | SR leukemia 95.9% [100 µM] | RPMI-8226 leukemia 98.2% [100 µM] | OVCAR-8 ovarian 106% [100 µM] | OVCAR-5 ovarian 103% [100 µM] | OVCAR-4 ovarian 104% [100 µM] | SK-OV-3 ovarian 107% [100 µM] | IGROV1 ovarian 107% [100 µM] | OVCAR-3 ovarian 116% [100 µM] | HS 578T breast 115% [100 µM]

O=C(O)C(=O)c1ccc(N(CCCl)CCCl)cc1
inactive: SK-MEL-2 melanoma 95.5% | SN12C renal 103% | UO-31 renal 87.7% | TK-10 renal 101% | ACHN renal 101% | CAKI-1 renal 101% | A498 renal 103% | HL-60(TB) leukemia 101% | CCRF-CEM leukemia 98.8% | MOLT-4 leukemia 79% | SR leukemia 80.8% | RPMI-8226 leukemia 106% | OVCAR-8 ovarian 101% | OVCAR-5 ovarian 105% | OVCAR-4 ovarian 110% | SK-OV-3 ovarian 104% | IGROV1 ovarian 101% | OVCAR-3 ovarian 110% | HS 578T breast 110%

O=C(OCCNCCCl)c1ccccc1
inactive: SK-MEL-2 melanoma 145% | SN12C renal 103% | UO-31 renal 103% | TK-10 renal 134% | ACHN renal 95% | CAKI-1 renal 86.4% | A498 renal 108% | HL-60(TB) leukemia 100% | MOLT-4 leukemia 90.7% | SR leukemia 90.8% | RPMI-8226 leukemia 99% | OVCAR-8 ovarian 120% | OVCAR-5 ovarian 97.6% | OVCAR-4 ovarian 104% | SK-OV-3 ovarian 110% | IGROV1 ovarian 101% | OVCAR-3 ovarian 109%

CCOC(=O)c1sc2ncnc(NCCCl)c2c1C
inactive: SK-MEL-2 melanoma 122% | SN12C renal 95.4% | UO-31 renal 82.3% | TK-10 renal 131% | ACHN renal 95% | CAKI-1 renal 87.1% | A498 renal 86.3% | HL-60(TB) leukemia 82.4% | CCRF-CEM leukemia 92.1% | MOLT-4 leukemia 93.2% | RPMI-8226 leukemia 97.8% | OVCAR-8 ovarian 99.2% | OVCAR-5 ovarian 96.2% | OVCAR-4 ovarian 97.5% | SK-OV-3 ovarian 95.2% | IGROV1 ovarian 104% | OVCAR-3 ovarian 103% | HS 578T breast 102%

OC(CNCCCl)C(O)C(O)C(O)CNCCCl (configuration not stated)
inactive: SK-MEL-2 melanoma 105% | SN12C renal 98.3% | UO-31 renal 97.5% | TK-10 renal 98.1% | ACHN renal 93.3% | CAKI-1 renal 110% | A498 renal 104% | HL-60(TB) leukemia 92.5% | CCRF-CEM leukemia 88.1% | MOLT-4 leukemia 82.3% | SR leukemia 71.7% | OVCAR-8 ovarian 86% | OVCAR-5 ovarian 106% | OVCAR-4 ovarian 94.9% | SK-OV-3 ovarian 103% | IGROV1 ovarian 94.1% | OVCAR-3 ovarian 109% | HS 578T breast 120%

Cc1ccc(NCCCl)c2c(=O)c3ccccc3sc12
inactive: SK-MEL-2 melanoma 105% | SN12C renal 97.4% | UO-31 renal 84.7% | TK-10 renal 105% | ACHN renal 109% | CAKI-1 renal 93.9% | A498 renal 78.7% | HL-60(TB) leukemia 77.1% | CCRF-CEM leukemia 97.8% | MOLT-4 leukemia 105% | SR leukemia 92.2% | RPMI-8226 leukemia 103% | OVCAR-8 ovarian 108% | OVCAR-5 ovarian 93.5% | OVCAR-4 ovarian 102% | SK-OV-3 ovarian 117% | IGROV1 ovarian 89.5% | OVCAR-3 ovarian 111% | HS 578T breast 108%

CCCCOP(OCCCC)OCCCC
inactive: SK-MEL-2 melanoma 99.7% | SN12C renal 108% | UO-31 renal 98.4% | TK-10 renal 97.8% | ACHN renal 94.4% | CAKI-1 renal 99.8% | A498 renal 124% | HL-60(TB) leukemia 116% | CCRF-CEM leukemia 107% | MOLT-4 leukemia 97.5% | SR leukemia 95.3% | RPMI-8226 leukemia 137% | OVCAR-8 ovarian 113% | OVCAR-5 ovarian 95.9% | OVCAR-4 ovarian 102% | SK-OV-3 ovarian 112% | IGROV1 ovarian 115% | OVCAR-3 ovarian 125% | HS 578T breast 120%

COC(=O)C1(C)COP(=O)(N2CCCC2)OC1 (configuration not stated)
inactive: SK-MEL-2 melanoma 95.4% | SN12C renal 102% | UO-31 renal 80.3% | TK-10 renal 108% | ACHN renal 107% | CAKI-1 renal 97.4% | A498 renal 111% | HL-60(TB) leukemia 96.4% | CCRF-CEM leukemia 92.5% | MOLT-4 leukemia 98.4% | SR leukemia 87.2% | RPMI-8226 leukemia 92.3% | OVCAR-8 ovarian 101% | OVCAR-5 ovarian 107% | OVCAR-4 ovarian 105% | SK-OV-3 ovarian 104% | IGROV1 ovarian 106% | OVCAR-3 ovarian 105% | HS 578T breast 105%

C/C(N)=N/P(=O)(Oc1ccccc1)Oc1ccccc1
inactive: SK-MEL-2 melanoma 112% | SN12C renal 101% | UO-31 renal 78.7% | TK-10 renal 104% | ACHN renal 98.7% | CAKI-1 renal 99.1% | A498 renal 108% | HL-60(TB) leukemia 99.3% | CCRF-CEM leukemia 98.7% | MOLT-4 leukemia 95.7% | SR leukemia 98.7% | RPMI-8226 leukemia 107% | OVCAR-8 ovarian 103% | OVCAR-5 ovarian 98.4% | OVCAR-4 ovarian 103% | SK-OV-3 ovarian 105% | IGROV1 ovarian 102% | OVCAR-3 ovarian 111% | HS 578T breast 109%

ClC1(Cl)SC(Cl)(Cl)C(Cl)(Cl)C1(Cl)Cl
inactive: SK-MEL-2 melanoma 89.8% | SN12C renal 105% | UO-31 renal 85.8% | TK-10 renal 114% | ACHN renal 103% | CAKI-1 renal 100% | A498 renal 106% | HL-60(TB) leukemia 95.9% | CCRF-CEM leukemia 90.5% | MOLT-4 leukemia 90.5% | SR leukemia 80.2% | RPMI-8226 leukemia 111% | OVCAR-8 ovarian 95.1% | OVCAR-5 ovarian 109% | OVCAR-4 ovarian 101% | SK-OV-3 ovarian 101% | IGROV1 ovarian 101% | OVCAR-3 ovarian 107% | HS 578T breast 109%

COP(=O)(CCCBr)OC
inactive: SK-MEL-2 melanoma 107% | SN12C renal 98.2% | UO-31 renal 91.8% | TK-10 renal 101% | ACHN renal 100% | CAKI-1 renal 97.7% | A498 renal 122% | HL-60(TB) leukemia 102% | CCRF-CEM leukemia 94% | MOLT-4 leukemia 104% | SR leukemia 95.1% | RPMI-8226 leukemia 101% | OVCAR-8 ovarian 96.6% | OVCAR-5 ovarian 96.7% | OVCAR-4 ovarian 100% | SK-OV-3 ovarian 103% | IGROV1 ovarian 106% | OVCAR-3 ovarian 120% | HS 578T breast 117%

C/C(N)=N\P(=O)(OCc1ccccc1)OCc1ccccc1
inactive: SK-MEL-2 melanoma 118% | SN12C renal 94.8% | UO-31 renal 83% | TK-10 renal 106% | ACHN renal 99.6% | CAKI-1 renal 96.4% | A498 renal 99.1% | HL-60(TB) leukemia 112% | CCRF-CEM leukemia 105% | MOLT-4 leukemia 104% | SR leukemia 102% | RPMI-8226 leukemia 105% | OVCAR-8 ovarian 95.9% | OVCAR-5 ovarian 88.7% | OVCAR-4 ovarian 100% | SK-OV-3 ovarian 116% | IGROV1 ovarian 102% | OVCAR-3 ovarian 111% | HS 578T breast 101%

O=P1(N(CCCl)CCCl)NCCC(C(F)(F)F)O1 (configuration not stated)
inactive: SK-MEL-2 melanoma 116% | SN12C renal 100% | UO-31 renal 102% | TK-10 renal 102% | ACHN renal 101% | CAKI-1 renal 89% | A498 renal 76.8% | HL-60(TB) leukemia 87.1% | CCRF-CEM leukemia 102% | MOLT-4 leukemia 109% | SR leukemia 98.9% | RPMI-8226 leukemia 101% | OVCAR-8 ovarian 108% | OVCAR-5 ovarian 101% | OVCAR-4 ovarian 103% | SK-OV-3 ovarian 104% | IGROV1 ovarian 110% | OVCAR-3 ovarian 111% | HS 578T breast 97.8%

NC(=S)N/N=C/c1ccc(N(CCF)CCCl)cc1
inactive: SK-MEL-2 melanoma 110% | SN12C renal 87.8% | UO-31 renal 68.1% | TK-10 renal 115% | ACHN renal 86.7% | CAKI-1 renal 94.5% | A498 renal 91.5% | HL-60(TB) leukemia 95.5% | CCRF-CEM leukemia 72.3% | MOLT-4 leukemia 71.4% | SR leukemia 76.3% | RPMI-8226 leukemia 79.6% | OVCAR-8 ovarian 84.6% | OVCAR-5 ovarian 109% | OVCAR-4 ovarian 82.7% | SK-OV-3 ovarian 103% | IGROV1 ovarian 89.8% | OVCAR-3 ovarian 106% | HS 578T breast 109%

COc1ccc([As](=O)(O)O)cc1
inactive: SK-MEL-2 melanoma 135% | SN12C renal 99% | UO-31 renal 93.3% | TK-10 renal 119% | ACHN renal 105% | CAKI-1 renal 109% | A498 renal 110% | HL-60(TB) leukemia 107% | MOLT-4 leukemia 101% | SR leukemia 90.1% | RPMI-8226 leukemia 102% | OVCAR-8 ovarian 99.7% | OVCAR-5 ovarian 103% | OVCAR-4 ovarian 111% | SK-OV-3 ovarian 119% | IGROV1 ovarian 111% | OVCAR-3 ovarian 108%

S=C(Nc1ccccc1)N(CCCl)CCCl
inactive: SK-MEL-2 melanoma 77.4% | SN12C renal 103% | UO-31 renal 93.8% | TK-10 renal 109% | ACHN renal 97.1% | CAKI-1 renal 97.5% | A498 renal 99.9% | HL-60(TB) leukemia 97.3% | MOLT-4 leukemia 95.3% | SR leukemia 91.9% | RPMI-8226 leukemia 91.7% | OVCAR-8 ovarian 97.5% | OVCAR-5 ovarian 97.2% | OVCAR-4 ovarian 109% | SK-OV-3 ovarian 113% | IGROV1 ovarian 108% | OVCAR-3 ovarian 114%

CC(C)OP(=S)(Cl)OC(C)C
inactive: SK-MEL-2 melanoma 88.7% | SN12C renal 114% | UO-31 renal 82.5% | TK-10 renal 97.4% | ACHN renal 112% | CAKI-1 renal 112% | A498 renal 103% | HL-60(TB) leukemia 94.9% | CCRF-CEM leukemia 93.2% | MOLT-4 leukemia 91.2% | SR leukemia 94.6% | RPMI-8226 leukemia 102% | OVCAR-8 ovarian 103% | OVCAR-5 ovarian 108% | OVCAR-4 ovarian 93% | SK-OV-3 ovarian 97.4% | IGROV1 ovarian 96.4% | OVCAR-3 ovarian 112% | HS 578T breast 107%

Cc1ccc(C)c(C(=O)N(CCCl)CCCl)c1
inactive: SK-MEL-2 melanoma 101% | SN12C renal 104% | UO-31 renal 87.5% | TK-10 renal 111% | ACHN renal 99% | CAKI-1 renal 104% | A498 renal 103% | HL-60(TB) leukemia 104% | MOLT-4 leukemia 110% | SR leukemia 101% | RPMI-8226 leukemia 103% | OVCAR-8 ovarian 102% | OVCAR-5 ovarian 102% | OVCAR-4 ovarian 110% | SK-OV-3 ovarian 97.7% | IGROV1 ovarian 99.2% | OVCAR-3 ovarian 95.8%
